Source: ChEMBL document CHEMBL4715860, “4-(Difluoromethyl)-5-(4-((3R,5S)-3,5-dimethylmorpholino)-6-((R)-3-methylmorpholino)-1,3,5-triazin-2-yl)pyridin-2-amine (PQR626), a Potent, Orally Available, and Brain-Penetrant mTOR Inhibitor for the Treatment of Neurological Disorders” (J Med Chem, 2020)

Columns and labels:
[1] = species: Homo sapiens; assay: Selectivity ratio of Ki for inhibition of alexa fluor 647-labeled kinase tracer 314 binding to recombinant human N-terminal His-tagged p110alpha/p85alpha expressed in baculovirus expression system to Ki for inhibition of alexa fluor 647-labeled kinase tracer 314 binding to recombinant human N-terminal GST-tagged mTOR (1360 to 2549 residues) expressed in baculovirus expression system
[2] = species: Homo sapiens; assay: Selectivity ratio of Kd for binding affinity to wild-type human partial length PIK3CA (R108 to N1068 residues) expressed in HEK293 cells to Kd for binding affinity to wild-type human partial length MTOR (L1382 to W2549 residues) expressed in HEK293 cells; type: cell-based
[3] = species: Homo sapiens; assay: Selectivity ratio of Kd for wild-type human partial length PIK3CG (S144 to A1102 residues) expressed in HEK293 cells to Kd for binding affinity to wild-type human partial length MTOR (L1382 to W2549 residues) expressed in HEK293 cells; type: cell-based
[4] = species: Homo sapiens; assay: Selectivity ratio of Kd for wild-type human partial length PIK3CD (R108 to Q1044 residues) expressed in HEK293 cells to Kd for binding affinity to wild-type human partial length MTOR (L1382 to W2549 residues) expressed in HEK293 cells; type: cell-based
[5] = species: Homo sapiens; assay: Selectivity ratio of Kd for binding affinity to wild-type human partial length PIK3CB (P118 to S1070 residues) expressed in HEK293 cells to Kd for binding affinity to wild-type human partial length MTOR (L1382 to W2549 residues) expressed in HEK293 cells; type: cell-based

SMILES | Ratio Ki [1] | other results
C[C@@H]1COCCN1c1nc(-c2cnc(N)cc2C(F)F)nc(N2[C@H](C)COC[C@H]2C)n1 | > 43 | –
CC[C@@H]1COCCN1c1nc(-c2cnc(N)cc2C(F)F)nc(N2CCOC[C@H]2C)n1 | 3.6 | –
C[C@@H]1COCCN1c1nc(-c2cnc(N)cc2C(F)F)nc(N2CCOCC2(C)C)n1 | 100 | Selectivity ratio [2]: 90; Selectivity ratio [3]: 90; Selectivity ratio [4]: 90; Selectivity ratio [5]: 90
C[C@@H]1COCCN1c1nc(-c2cnc(N)cc2C(F)F)nc(N2C3COCC2C3)n1 | > 14 | –
C[C@@H]1COCCN1c1nc(-c2cnc(N)cc2C(F)F)nc(N2CCOC[C@@H]2C)n1 | 2.9 | –
C[C@@H]1COCCN1c1nc(-c2cnc(N)cc2C(F)F)nc(N2CCOCC2)n1 | 2.5 | –
C[C@@H]1COCCN1c1nc(-c2cnc(N)cc2C(F)F)nc(N2CCOC[C@H]2CO)n1 | > 20 | –
C[C@@H]1COCCN1c1nc(-c2cnc(N)cc2C(F)F)nc(N2[C@@H](C)COC[C@@H]2C)n1 | 37 | –
C[C@@H]1COCCN1c1nc(-c2cnc(N)cc2C(F)F)nc(N2CCOCC23CCC3)n1 | 36 | –
COC[C@@H]1COCCN1c1nc(-c2cnc(N)cc2C(F)F)nc(N2CCOC[C@H]2C)n1 | > 43 | –
C[C@@H]1COCCN1c1nc(-c2cnc(N)cc2C(F)F)nc(N2[C@H](C)COC[C@@H]2C)n1 | 80 | Selectivity ratio [2]: 164; Selectivity ratio [3]: 164; Selectivity ratio [4]: 164; Selectivity ratio [5]: 164
C[C@@H]1COCCN1c1nc(-c2cnc(N)cc2C(F)F)nc(N2CCOC[C@@H]2CO)n1 | > 35 | –
CC[C@H]1COCCN1c1nc(-c2cnc(N)cc2C(F)F)nc(N2CCOC[C@H]2C)n1 | 0.9 | –
C[C@@H]1COCCN1c1nc(-c2cnc(N)cc2C(F)F)nc(N2CCOC[C@H]2C)n1 | 39 | –
C[C@@H]1CN(c2nc(-c3cnc(N)cc3C(F)F)nc(N3CCOC[C@H]3C)n2)C[C@H](C)O1 | > 24 | –
